Data from patent US4212797A, “Synthetic pentapeptide having opiate agonist activity” (Beckman Instruments, Inc., priority 1976, dated 1980).

System: opiate receptor (stereospecific naloxone binding)
Assay: Inhibition of stereospecific naloxone binding (Pert and Snyder technique)
Conditions: sodium 100 mM
Experimental: B., and Snyder, S., Proceedings of the National Academy of Sciences, Vol. 70, pp. 2243-2247 (1973). The potency is measured as ID50, defined as the concentration required to inhibit 50% of stereospecific naloxone binding. The concentration of sodium was 100 mM. The effectiveness is inversely related to the ID50 value.

CN1CC[C@]23c4c5ccc(O)c4O[C@H]2[C@@H](O)C=C[C@H]3[C@H]1C5 [Morphine]
ID50, concentration required to inhibit 50% of stereospecific naloxone binding: 0.2
